## Yeast mating assay 2: variants of the scFv Ab-95

Source: Engelhart et al. 2022 (doi:10.1038/s41597-022-01779-4), MIT Lincoln Laboratory and A-Alpha Bio; data file from the FLAb repository.

The target is the same throughout: PDVDLGDISGINAS, from the HR2 region of SARS-CoV-2 spike.

Parent scFv Ab-95: VH joined to VL by a 15-residue (Gly4Ser)3 linker. Changes lie in the light chain CDRs alone.
VH: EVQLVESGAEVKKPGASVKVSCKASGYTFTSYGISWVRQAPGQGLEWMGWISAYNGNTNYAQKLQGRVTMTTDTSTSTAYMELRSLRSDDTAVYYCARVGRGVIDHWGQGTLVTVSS
VL: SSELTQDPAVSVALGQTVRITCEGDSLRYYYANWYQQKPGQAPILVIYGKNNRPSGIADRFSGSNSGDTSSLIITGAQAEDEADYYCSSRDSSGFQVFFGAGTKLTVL

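AAYL52 was designed without a model: most single CDR substitutions and a random sample of double and triple ones. The assay is AlphaSeq: two haploid yeast populations carry antibody and antigen on their surface. Pairs that bind mate more often; barcode pairs of the diploids are counted by sequencing. A regression on co-assayed BCL2-family reference pairs converts the normalised counts of each replicate to an apparent Kd. The assay was run in three technical replicates.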

Each variant is given by its three light chain CDRs, as the data file delimits them; those of the parent are EGDSLRYYYAN, GKNNRPS, SSRDSSGFQVF.
Scale: log10 of Kd in nM, estimated from mating counts; low values are strong binders.
Replicates are averaged; those with no signal do not enter the mean.
"not detected" marks a missing value. The strain was present, yet no cells mated with the target were sequenced in any replicate, which points to weak or no binding.
Background: pairings of library AAYL52 with three empty control strains gave a value in 28% of cases (median 3.91, 5th percentile 2.90). Values in that range, when seen in few replicates, are hard to tell from nonspecific mating.

| # | CDR-L1 | CDR-L2 | CDR-L3 | mean, log10 nM | seen in |
|---|---|---|---|---|---|
| 1 | EGDSLAYYYAN | GKNYRRS | SSRDSSGFQVF | 3.61 | 2 of 3 |
| 2 | NGDSLRYYYAV | GKNNRPS | SSRDSSGFQVF | 4.32 | 2 of 3 |
| 3 | FGDSLRYYYAN | GKNNRPP | SSRDSEGFQVF | 3.76 | 1 of 3 |
| 4 | EGDSLRYYYAN | GKLNRPS | SSRDSEGFQVI | 3.81 | 1 of 3 |
| 5 | EGDSLRFQYAN | AKNNRPS | SSRDSSGFQVF | 1.69 | 3 of 3 |
| 6 | EGDSLRYHYAP | GKNNRPS | SSEDSSGFQVF | 4.06 | 1 of 3 |
| 7 | EGDSLRYYYAN | LENNRPS | ASRDSSGFQVF | 4.19 | 3 of 3 |
| 8 | EEDSLRYYYDN | GKNNRPS | YSRDSSGFQVF | 4.58 | 2 of 3 |
| 9 | ERDSLRYYYAN | GKNNRPS | QPRDSSGFQVF | 3.02 | 3 of 3 |
| 10 | EGDPLTYYNAN | GKNNRPS | SSRDSSGFQVF | 2.52 | 3 of 3 |
| 11 | YGDSLRYMYAN | GKNNRPS | SSRDSSGFQVI | 2.38 | 3 of 3 |
| 12 | EGDILRYYYAN | GKNNYAS | SSRDSSGFQVF | 3.85 | 3 of 3 |
| 13 | EGDSLRYYYAN | GKNNRPS | SDRSPSGFQVF | 1.70 | 3 of 3 |
| 14 | QGDSLRYYTAN | GKNNRPS | SSRDSNGFQVF | 1.96 | 3 of 3 |
| 15 | NGDSLRYYYAN | FKNNRGS | SSRDSSGFQVF | 5.25 | 2 of 3 |
| 16 | EGDSLRYYYAN | GKNNRPS | PSRDSSGFQLF | 2.22 | 3 of 3 |
| 17 | EGDELRYSYAN | GKNNRPS | SSRDSTGFQVF | 1.20 | 3 of 3 |
| 18 | EGDSLEYYDAN | GKGNRPS | SSRDSSGFQVF | 0.86 | 3 of 3 |
| 19 | IGDSLHYEYAN | GKNNRPS | SSRDSSGFQVF | 1.06 | 3 of 3 |
| 20 | EGDSLRYYVAN | GKNNRPS | SSRDSGGFQVF | 3.39 | 3 of 3 |
| 21 | EGDSLRYYYAN | GTNNRPS | SSRDSSGFQDQ | 3.14 | 2 of 3 |
| 22 | EGDSLRYYYAN | GNNNRTS | SSEDSSGFQVF | 3.27 | 3 of 3 |
| 23 | EGDSLRYSYAN | GKNNRPS | SSRDIYGFQVF | 2.65 | 3 of 3 |
| 24 | HGDSLRYMYAN | GKNNRNS | SSRDSSGFQVF | 1.11 | 3 of 3 |
| 25 | EGDSLRYYYAW | GKENRPS | SPRDSSGFQVF | 4.79 | 1 of 3 |
| 26 | EGDSLRYIYAF | GKNNRPS | SSRDSSGKQVF | not detected | 0 of 3 |
| 27 | EGDSCRYYYAY | GKQNRPS | SSRDSSGFQVF | not detected | 0 of 3 |
| 28 | EGDLLRYYYAN | QKNNFPS | SSRDSSGFQVF | not detected | 0 of 3 |
| 29 | EGDSLRYYYAG | GKNNRPN | SSRDSSRFQVF | not detected | 0 of 3 |
| 30 | EGNSLRYYYAI | GKNNRPS | SSRDSSGFQVF | 1.86 | 3 of 3 |
| 31 | EGDMLRYTYAN | GKNNRPS | SYRDSSGFQVF | 4.12 | 1 of 3 |
| 32 | EGDSLRYYYNN | GKNNRPS | SSRQSSGFHVF | 5.09 | 1 of 3 |
| 33 | EGDSLRYIYAN | GKNARPS | SARDSSGFQVF | 1.91 | 3 of 3 |
| 34 | EGESLRYYQAQ | GKNNRPS | SSRDSSGFQVF | 1.71 | 3 of 3 |
| 35 | EGDSLRYYYAN | GKNNRGS | SSRGSSGFQVF | 3.69 | 3 of 3 |
| 36 | EGDSLRYYSAK | GKNNRPS | SSEDSSGFQVF | 4.02 | 2 of 3 |
| 37 | EGDSLRYYYAN | GKNNRPQ | SSRDSGGFQVF | 2.31 | 3 of 3 |
| 38 | EGDILRYYYAN | GKNCRPS | SSVDSSGFQVF | not detected | 0 of 3 |
| 39 | EGDSLRYYYAN | GKFNRPS | SSRDSSGFQDF | 4.62 | 3 of 3 |
| 40 | EGDSLRYYYAC | GKFNRPS | SSRDSSGFQVH | 3.83 | 1 of 3 |
| 41 | EGFDLRYYYAN | GKNNRPS | SSRDSSGFSVF | 3.18 | 3 of 3 |
| 42 | WGDSLRYYYCN | GKNNRPS | SSRDSSGFNVF | 1.77 | 3 of 3 |
| 43 | EGDSLRYYYAF | GQNNRPS | RSRDSSGFQVF | not detected | 0 of 3 |
| 44 | EGDSLRYYYAN | GKNNAPS | SSRESSGFQVH | 3.73 | 3 of 3 |
| 45 | EGDSLRYYYTN | GKNNRCS | SSRDSSGDQVF | 3.26 | 3 of 3 |
| 46 | EGDSLRYYYAN | GHNNRPS | SSIDSSGYQVF | 3.41 | 3 of 3 |
| 47 | GGDSLRYYYAT | GKNNRPS | SSRTSSGFQVF | 3.96 | 1 of 3 |
| 48 | ESDSLRYYYAN | GKNNRTS | PSRDSSGFQVF | 3.27 | 1 of 3 |
| 49 | EGDSYRYYYAN | GKRNRPS | SSRDSSGFNVF | not detected | 0 of 3 |
| 50 | EGDSLRSYYFN | GKANRPS | SSRDSSGFQVF | 2.68 | 1 of 3 |
| 51 | EGDSLRYYYAN | MKNNRPS | SSRVSSGFKVF | 3.03 | 1 of 3 |
| 52 | EGDSLRYYYAN | GKNNRPS | SSRSFSGHQVF | 3.77 | 3 of 3 |
| 53 | EGDNLRYYYAN | GWNNRPS | SSRDSFGFQVF | 2.85 | 3 of 3 |
| 54 | EGDSMRWIYAN | GKNNRPS | SSRDSSGFQVF | 2.25 | 3 of 3 |
| 55 | EGDSLRDYYAD | GKNNRPS | QSRDSSGFQVF | 3.29 | 3 of 3 |
| 56 | EGDSLRYNCAI | GKNNRPS | SSRDSSGFQVF | 3.51 | 1 of 3 |
| 57 | EGDSLRYYYAN | YKNNRPS | SSTDSSGFQCF | 3.56 | 1 of 3 |
| 58 | EGDSLRYYYAV | IKNNRPS | SSRDSSGFQHF | 4.02 | 2 of 3 |
| 59 | EADSLRYYYAN | GKNNRPS | SSRDSSGFQQD | 3.94 | 1 of 3 |
| 60 | EGDSLRYYYAN | GKNPRPS | SSRDSSGFELF | 3.63 | 2 of 3 |
| 61 | EGDSLRYYYAN | GKHVIPS | SSRDSSGFQVF | 4.06 | 3 of 3 |
| 62 | EVDSLRYYYAN | GKNNRRS | SSRDSSGFQVF | 5.37 | 1 of 3 |
| 63 | EGDALRYYSAN | GKNNRPS | SSRDSSGFQAF | 1.23 | 3 of 3 |
| 64 | EGDWLRYYYAN | GKNNRPS | SSYDSKGFQVF | 4.23 | 1 of 3 |
| 65 | EGDSLRYYYAN | GWNPRPS | SARDSSGFQVF | 4.46 | 2 of 3 |
| 66 | EGDSLRYTYAN | GKNNRPS | SSRLSSEFQVF | 1.70 | 3 of 3 |
| 67 | EGDSFWYYYAN | GKNNRPS | STRDSSGFQVF | 3.21 | 3 of 3 |
| 68 | EGDSLRYYYAN | GKNNRPS | STRDESGFQVA | 3.62 | 2 of 3 |
| 69 | EGDSLRYYLAN | GKNLRPS | SSRDSSGFQWF | 2.48 | 3 of 3 |
| 70 | EGDSLRYYYAN | GKNNRPS | SSRESSLFQAF | 3.85 | 2 of 3 |
| 71 | EGDSLRYYSAN | GWNNRPS | ESRDSSGFQVF | 1.74 | 3 of 3 |

Top 7 of the variants detected in all replicates, tightest first:

CDR-L1,CDR-L2,CDR-L3,"mean, log10 nM",seen in
EGDSLEYYDAN,GKGNRPS,SSRDSSGFQVF,0.86,3 of 3
IGDSLHYEYAN,GKNNRPS,SSRDSSGFQVF,1.06,3 of 3
HGDSLRYMYAN,GKNNRNS,SSRDSSGFQVF,1.11,3 of 3
EGDELRYSYAN,GKNNRPS,SSRDSTGFQVF,1.20,3 of 3
EGDALRYYSAN,GKNNRPS,SSRDSSGFQAF,1.23,3 of 3
EGDSLRFQYAN,AKNNRPS,SSRDSSGFQVF,1.69,3 of 3
EGDSLRYYYAN,GKNNRPS,SDRSPSGFQVF,1.70,3 of 3

For reference, the parent read 2.31 as the reference entry and 2.25 as a member of this library.